Results from PMC5360176 (Journal of clinical psychopharmacology, 2016).

Tests used:
[1] = aspirin at very high doses (3.5–5g /day); cited from earlier work
[2] = oxycodone 30 mg, Day 5 vs Day 4, p>0.05

Effect of co-administered oxycodone on ACZ plasma PK parameters [2]: did not affect the plasma PK parameters
SMILES: CC(=O)Nc1nnc(S(N)(=O)=O)s1 [ACZ, Acetazolamide]
Reduction of clearance of therapeutic doses of ACZ by aspirin [1]: two fold
